Values of other authors as cited in the CATMoS acute toxicity set (Mansouri et al. 2021).

Experiment: rat acute oral toxicity
Details: in vivo

| Structure (SMILES) | LD50 |
| --- | --- |
| Cc1ccc2c(c1)CC(=O)c1cc(CC(=O)O)ccc1O2 | 326 mg/kg |
| Cc1ccc(C(=O)c2ccc(CC(=O)O)n2C)cc1 | 914 mg/kg |
| C=CCn1c(=O)c2[nH]c(C)nc2n(CCCC)c1=O | 24 mg/kg |
| CN1c2c(oc(=O)n(-c3ccccn3)c2=O)-c2ccccc2S1(=O)=O | 1430 mg/kg |
| Cc1ccc(C(=O)c2ccc(CC(=O)NCC(=O)Nc3cccc(C)c3C)n2C)cc1 | 1300 mg/kg |
| COc1ccc(Cc2cnc(N)nc2N)cc1OC | 3680 mg/kg |
| Cc1cc2cccnc2n(-c2ccccc2)c1=O | 256 mg/kg |
| O=c1[nH]c(=O)n(C2CCCO2)cc1F (stereo unspecified) | 930 mg/kg |
| Cc1oncc1C(=O)N1CCCCC1 | 1240 mg/kg |
| COc1cc(CN2CCN(C(=O)c3cc4ccccc4o3)CC2)cc(OC)c1OC | 1000 mg/kg |
| CC(=Cc1ccccc1)CC(=O)NCCO | 1380 mg/kg |
| CC(C)CCC(C)Nc1ccc(Nc2ccccc2)cc1 (stereo unspecified) | 2100 mg/kg |
| COC(=O)[C@H]1[C@H]2C[C@@H]3c4[nH]c5cc(OC)ccc5c4CCN3C[C@H]2C[C@@H](O)[C@@H]1OC | 479 mg/kg |
| CCC(C)(C)c1ccc(O)cc1 | 1830 mg/kg |
| CCN(CC)C(=O)CC(C)=Cc1ccccc1 | 2300 mg/kg |
| Nc1ccc(Cc2ccc(N)c(Cl)c2)cc1Cl | 1140 mg/kg |
